# Measurements reported in US20040072753A1, “Peptides for use in the treatment of alzheimer's disease” (priority 2000, published 2004).
# Test system: Aβ 1-40
# Test: purified protein, by the assay type
# Conditions: pH 7.4; 30.0 °C
substance,measurement,value
recombinant p34-cdc2/cyclin B1 (Homo sapiens),Km,5.2 µM
